Sequences of proteins named here, by UniProt entry; tags and fusion partners are left off.
UniProt P62942, whole entry: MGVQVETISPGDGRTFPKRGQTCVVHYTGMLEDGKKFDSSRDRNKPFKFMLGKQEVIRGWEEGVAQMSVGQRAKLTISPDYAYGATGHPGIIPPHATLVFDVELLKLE

In patent publication US6500843B2, “Inhibitors of rotamase enzyme activity” (GPI NIL Holdings, Inc., priority 1995, dated 2002):

What was measured:
[1] = target: recombinant FKBP-12 (Homo sapiens, UniProt P62942); assay: Inhibition of 3H-FK506 binding to recombinant FKBP-12; conditions: read-out: [3H]-FK506-FKBP12 (IC50); Table 3
[2] = tested on: Sprague-Dawley rats, sciatic nerve crush; assay: Sciatic nerve axotomy (crush) model of nerve regeneration; conditions: 30 mg/kg s.c. daily, 18 days after lesion

## CCC(C)(C)C(=O)C(=O)N1CCCCC1C(=O)OCCCc1ccccc1 (stereo not drawn)
[1]
  IC50: 8 µM
[2]
  Axon Number (% Control): 75 % Control
  Myelin Level: 35
